These results are taken from ChEMBL document CHEMBL1157707, “Lead optimization of N-3-substituted 7-morpholinotriazolopyrimidines as dual phosphoinositide 3-kinase/mammalian target of rapamycin inhibitors: discovery of PKI-402” (J Med Chem, 2010).

By UniProt entry, the sequences of proteins in these tests, tags left out.
UniProt P42336, whole entry: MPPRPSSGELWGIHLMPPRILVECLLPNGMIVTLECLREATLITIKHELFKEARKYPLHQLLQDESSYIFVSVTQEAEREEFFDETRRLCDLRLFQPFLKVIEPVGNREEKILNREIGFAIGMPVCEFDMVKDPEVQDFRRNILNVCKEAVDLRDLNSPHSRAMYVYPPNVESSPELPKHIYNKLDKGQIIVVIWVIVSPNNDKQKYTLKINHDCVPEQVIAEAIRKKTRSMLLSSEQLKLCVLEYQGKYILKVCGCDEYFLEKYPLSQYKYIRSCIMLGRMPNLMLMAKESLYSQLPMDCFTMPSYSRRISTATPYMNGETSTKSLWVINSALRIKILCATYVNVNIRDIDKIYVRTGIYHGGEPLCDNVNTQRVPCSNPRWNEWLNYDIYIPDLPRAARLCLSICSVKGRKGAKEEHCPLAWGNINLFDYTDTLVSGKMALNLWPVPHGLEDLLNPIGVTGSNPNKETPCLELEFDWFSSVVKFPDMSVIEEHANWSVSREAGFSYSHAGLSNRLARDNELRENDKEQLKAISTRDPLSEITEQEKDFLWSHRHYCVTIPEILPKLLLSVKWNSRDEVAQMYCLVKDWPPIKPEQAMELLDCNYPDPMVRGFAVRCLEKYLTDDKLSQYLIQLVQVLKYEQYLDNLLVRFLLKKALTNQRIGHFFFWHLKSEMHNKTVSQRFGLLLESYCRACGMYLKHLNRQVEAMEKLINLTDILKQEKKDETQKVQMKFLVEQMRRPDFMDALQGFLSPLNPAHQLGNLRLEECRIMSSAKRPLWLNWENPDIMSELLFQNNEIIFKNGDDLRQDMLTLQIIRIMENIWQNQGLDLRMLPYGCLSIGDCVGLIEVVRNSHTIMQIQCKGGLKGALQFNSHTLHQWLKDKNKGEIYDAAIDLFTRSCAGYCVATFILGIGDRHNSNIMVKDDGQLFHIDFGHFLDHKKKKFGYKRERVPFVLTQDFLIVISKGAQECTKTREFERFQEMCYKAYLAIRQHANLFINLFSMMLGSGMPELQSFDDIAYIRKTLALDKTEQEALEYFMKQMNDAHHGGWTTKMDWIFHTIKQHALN

The target of the assay is Phosphatidylinositol 4,5-bisphosphate 3-kinase catalytic subunit alpha isoform (Homo sapiens, UniProt P42336).

For the compound `OCc1cccc(-c2nc(N3CCOCC3)c3ncn(C4CCN(Cc5ccccc5)CC4)c3n2)c1`, the 50% inhibitory concentration (IC50) came out at 45 nM.
